Data: IntAct's records for PubMed 31515488

B1: TNFAIP3-interacting protein 1 (Homo sapiens), Q15025 (parent)
chain: MEGRGPYRIYDPGGSVPSGEASAAFERLVKENSRLKEKMQGIKMLGELLEESQMEATRLRQKAEELVKDNELLPPPSPSLGSFDPLAELTGKDSNVTASPTAPACPSDKPAPVQKPPSSGTSSEFEVVTPEEQNSPESSSHANAMALGPLPREDGNLMLHLQRLETTLSVCAEEPDHGQLFTHLGRMALEFNRLASKVHKNEQRTSILQTLCEQLRKENEALKAKLDKGLEQRDQAAERLREENLELKKLLMSNGNKEGASGRPGSPKMEGTGKKAVAGQQQASVTAGKVPEVVALGAAEKKVKMLEQQRSELLEVNKQWDQHFRSMKQQYEQKITELRQKLADLQKQVTDLEAEREQKQRDFDRKLLLAKSKIEMEETDKEQLTAEAKELRQKVKYLQDQLSPLTRQREYQEKEIQRLNKALEEALSIQTPPSSPPTAFGSPEGAGALLRKQELVTQNELLKQQVKIFEEDFQRERSDRERMNEEKEELKKQVEKLQAQVTLSNAQLKAFKDEEKAREALRQQKRKAKASGERYHVEPHPEHLCGAYPYAYPPMPAMVPHHGFEDWSQIRYPPPPMAMEHPPPLPNSRLFHLPEYTWRLPCGGVRNPNQSSQVMDPPTARPTEPESPKNDREGPQ
partner: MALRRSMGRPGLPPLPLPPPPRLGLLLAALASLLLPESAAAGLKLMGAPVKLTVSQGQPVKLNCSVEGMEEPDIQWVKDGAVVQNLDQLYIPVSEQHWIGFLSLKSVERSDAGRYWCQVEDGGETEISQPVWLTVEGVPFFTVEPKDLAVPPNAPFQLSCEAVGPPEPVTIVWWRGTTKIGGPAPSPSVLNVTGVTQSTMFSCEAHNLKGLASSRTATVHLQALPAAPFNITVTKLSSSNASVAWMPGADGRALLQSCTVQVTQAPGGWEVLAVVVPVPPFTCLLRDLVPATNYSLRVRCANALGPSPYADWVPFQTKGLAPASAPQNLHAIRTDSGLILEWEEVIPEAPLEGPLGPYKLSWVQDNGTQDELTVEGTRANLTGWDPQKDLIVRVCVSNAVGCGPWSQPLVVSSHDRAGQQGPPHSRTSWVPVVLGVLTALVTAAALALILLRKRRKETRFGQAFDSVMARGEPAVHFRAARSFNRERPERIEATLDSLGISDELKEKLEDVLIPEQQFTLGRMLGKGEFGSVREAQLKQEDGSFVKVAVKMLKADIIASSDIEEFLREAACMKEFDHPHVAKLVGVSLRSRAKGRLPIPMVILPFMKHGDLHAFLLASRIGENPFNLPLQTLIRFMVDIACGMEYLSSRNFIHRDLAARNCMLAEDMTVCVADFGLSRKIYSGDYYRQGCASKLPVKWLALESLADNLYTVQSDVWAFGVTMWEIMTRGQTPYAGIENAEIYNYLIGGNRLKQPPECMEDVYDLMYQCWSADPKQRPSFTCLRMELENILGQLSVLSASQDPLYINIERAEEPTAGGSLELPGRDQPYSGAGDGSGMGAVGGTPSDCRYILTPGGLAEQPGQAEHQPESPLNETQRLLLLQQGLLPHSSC
B2: Large proline-rich protein BAG6 (Homo sapiens), P46379 (parent)
chain: MEPNDSTSTAVEEPDSLEVLVKTLDSQTRTFIVGAQMNVKEFKEHIAASVSIPSEKQRLIYQGRVLQDDKKLQEYNVGGKVIHLVERAPPQTHLPSGASSGTGSASATHGGGSPPGTRGPGASVHDRNANSYVMVGTFNLPSDGSAVDVHINMEQAPIQSEPRVRLVMAQHMIRDIQTLLSRMETLPYLQCRGGPQPQHSQPPPQPPAVTPEPVALSSQTSEPVESEAPPREPMEAEEVEERAPAQNPELTPGPAPAGPTPAPETNAPNHPSPAEYVEVLQELQRLESRLQPFLQRYYEVLGAAATTDYNNNHEGREEDQRLINLVGESLRLLGNTFVALSDLRCNLACTPPRHLHVVRPMSHYTTPMVLQQAAIPIQINVGTTVTMTGNGTRPPPTPNAEAPPPGPGQASSVAPSSTNVESSAEGAPPPGPAPPPATSHPRVIRISHQSVEPVVMMHMNIQDSGTQPGGVPSAPTGPLGPPGHGQTLGQQVPGFPTAPTRVVIARPTPPQARPSHPGGPPVSGTLQGAGLGTNASLAQMVSGLVGQLLMQPVLVAQGTPGMAPPPAPATASASAGTTNTATTAGPAPGGPAQPPPTPQPSMADLQFSQLLGNLLGPAGPGAGGSGVASPTITVAMPGVPAFLQGMTDFLQATQTAPPPPPPPPPPPPAPEQQTMPPPGSPSGGAGSPGGLGLESLSPEFFTSVVQGVLSSLLGSLGARAGSSESIAAFIQRLSGSSNIFEPGADGALGFFGALLSLLCQNFSMVDVVMLLHGHFQPLQRLQPQLRSFFHQHYLGGQEPTPSNIRMATHTLITGLEEYVRESFSLVQVQPGVDIIRTNLEFLQEQFNSIAAHVLHCTDSGFGARLLELCNQGLFECLALNLHCLGGQQMELAAVINGRIRRMSRGVNPSLVSWLTTMMGLRLQVVLEHMPVGPDAILRYVRRVGDPPQPLPEEPMEVQGAERASPEPQRENASPAPGTTAEEAMSRGPPPAPEGGSRDEQDGASAETEPWAAAVPPEWVPIIQQDIQSQRKVKPQPPLSDAYLSGMPAKRRKTMQGEGPQLLLSEAVSRAAKAAGARPLTSPESLSRDLEAPEVQESYRQQLRSDIQKRLQEDPNYSPQRFPNAQRAFADDP
partner: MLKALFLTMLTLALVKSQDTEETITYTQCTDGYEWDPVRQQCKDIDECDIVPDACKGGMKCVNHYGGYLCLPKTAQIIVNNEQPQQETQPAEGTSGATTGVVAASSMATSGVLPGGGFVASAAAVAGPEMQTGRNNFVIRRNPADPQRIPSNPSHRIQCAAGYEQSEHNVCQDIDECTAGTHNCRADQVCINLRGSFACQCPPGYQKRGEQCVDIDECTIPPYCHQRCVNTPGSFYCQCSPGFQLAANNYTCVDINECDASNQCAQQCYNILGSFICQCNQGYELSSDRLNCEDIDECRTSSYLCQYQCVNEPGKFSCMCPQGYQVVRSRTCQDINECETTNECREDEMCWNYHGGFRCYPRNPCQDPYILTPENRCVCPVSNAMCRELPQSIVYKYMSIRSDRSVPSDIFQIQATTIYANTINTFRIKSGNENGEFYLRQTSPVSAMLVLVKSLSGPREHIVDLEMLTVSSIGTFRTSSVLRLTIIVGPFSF
B3: TNFAIP3-interacting protein 1 (Homo sapiens), Q15025 (parent)
chain: B1 chain

Variants of: B1
Conditions: with tyro3_human TYRO3, Q06418

Row | effect of a mutation on the interaction | Variant
1 | with no effect | Q214K
2 | with no effect | P151A

Variants of: B2
Conditions: with fbln3_human EFEMP1, Q12805

Row | effect of a mutation on the interaction | Variant
3 | with no effect | S625P

Variants of: B3
Conditions: with mo4l2_human MORF4L2, Q15014

Row | effect of a mutation on the interaction | Variant
4 | with no effect | K30T
5 | with no effect | V16M

Variants of: B3
Conditions: with ndc80_human NDC80, O14777

Row | effect of a mutation on the interaction | Variant
6 | with no effect | K30T
7 | with no effect | V16M

Variants of: B3
Conditions: with mo4l1_human MORF4L1

Row | effect of a mutation on the interaction | Variant
8 | with no effect | K30T
9 | with no effect | V16M

Variants of: B3
Conditions: with mlp3b_human MAP1LC3B

Row | effect of a mutation on the interaction | Variant
10 | with no effect | K30T
11 | with no effect | V16M

Variants of: B3
Conditions: with gbrl1_human GABARAPL1

Row | effect of a mutation on the interaction | Variant
12 | with no effect | K30T
13 | with no effect | V16M

Variants of: B3
Conditions: with tean2_human TCEANC2, Q96MN5

Row | effect of a mutation on the interaction | Variant
14 | with no effect | K30T
15 | with no effect | V16M

Variants of: B3
Conditions: with tf2b_human GTF2B

Row | effect of a mutation on the interaction | Variant
16 | with no effect | K30T
17 | with no effect | V16M
18 | with no effect | Q214K

Variants of: B3
Conditions: with optn_human OPTN

Row | effect of a mutation on the interaction | Variant
19 | with no effect | K30T
20 | with no effect | V16M
